This is an account of results in PubChem BioAssay AID1159524 (National Center for Advancing Translational Sciences (NCATS), 2015).

This is a selection; strong and weak results do not stand in their true shares. Some of these compounds have results that are not shown, active ones among them. Inconclusive results are not listed. Calls of active or inactive are those of the source. Calls come from the whole dose curve; tested in HEK293T cells.
% is set by controls: 0 for no effect and ±100 for the full control effect.

The nature of this assay: High Throughput Screening for Foot and Mouth Disease Virus Antivirals. Note: read-out not given here; nearly all actives have a fitted effect of over 45% in size. As to conditions: FMDV antiviral cell-based qHTS; at 57.9 µM (top of the series). Background: qHTS replaces the single test concentration by a dilution series.
With `C=CCN1CCN(CCOC(=O)C(O)(c2ccccc2)c2ccccc2)CC1`, the activity change, negative = inhibition was inactive: -5.61%.
To `CC(C)N1C(=O)CC2(CCN(CCOC(=O)C(O)(c3ccccc3)c3ccccc3)CC2)C1=O` belongs inactive: -8.04%.
